According to ChEMBL document CHEMBL3638881, “Compounds for the treatment of inflammatory disorders” (2013):

Target: Tumor necrosis factor (Homo sapiens, UniProt P01375)
Experiment: Inhibition Assay: Inhibition assay using TNF-alpha.

CO/N=C(\c1ccc(C#C[C@]2(CN3Cc4ccc(OC)cc4C3=O)NC(=O)NC2=O)cc1)N1CCOCC1
IC50: 1240 nM
